Results published in paper PMC7982521, “Studies on the Changes of Pharmacokinetics Behaviors of Phytochemicals and the Influence on Endogenous Metabolites After the Combination of Radix Bupleuri and Radix Paeoniae Alba Based on Multi-Component Pharmacokinetics and Metabolomics” (Frontiers in Pharmacology, 2021).

Test: Multi-component pharmacokinetics in rat plasma after oral administration of RB, RPA or RB-RPA extracts (UPLC-HRMS, non-compartmental analysis)
Format: in vivo, Sprague-Dawley rats
Conditions: oral RB-RPA mixed extracts (45 g-herb/kg RB + 45 g-herb/kg RPA), mean ± SD, n = 7
Description: (Beijing, China, No. SCXK2018-0011). […] All rats were free to access the water and food until 12 h before the experiment. The animal study was reviewed and approved by the Experimental Animal Ethical Committee of Modern Research Center for Traditional Chinese Medicine, Shanxi University (animal ethic approval number: SXULL2018018), and all experimental procedures were carried out in accordance with the NIH Guide for the Care and Use of Laboratory Animals. […] So, we applied the method of switching ion modes in the detection process to quantify all analytes better. Glycyrrhizin was selected as the internal standard because it could be detected in both positive and negative ion modes. UPLC/MS/MS calibration and quantitation data were processed with Xcalibur workstation (Thermo-Fisher Scientific Inc., Waltham, MA, United States). […] For the other 30 components without standard reference, their concentrations were analyzed following the regression equations of homologous compounds ([Qiao et al., 2012]): paeoniflorin for P1 and M1 to M3; methylgallate for M4 to M10; saikosaponin […] and […]; saikosaponin […]; saikosaponin […]; saikosaponin B2 for P11 and M25 to […].

Work on `C[C@H]1O[C@@H](O[C@H]2CC[C@@]3(C)[C@@H](CC[C@]4(C)[C@@H]3C=C[C@]35OC[C@@]6(CCC(C)(C)C[C@H]63)[C@H](O)C[C@]54C)[C@]2(C)CO)[C@H](O)[C@@H](O[C@@H]2O[C@H](CO)[C@@H](O)[C@H](O)[C@H]2O)[C@H]1O` [Saikosaponin D] yielded a Cmax of 26.57 ± 6.99 ng/mL.
